Literature values in US20170315126A1, “METHOD FOR SCREENING COMPOUND SPECIFICALLY SUPPRESSING FORMATION OF CAVEOLAE OF CANCER CELLS, SCREENING KIT, VECTOR AND TRANSFORMANT TO BE USED IN KIT, AND METHOD FOR SELECTING PATIENT FOR WHOM MOLECULARLY TARGETED DRUG IS INDICATED” (NATIONAL UNIVERSITY CORPORATION NAGOYA INSTITUTE OF …, priority 2014, published 2017).

Test system: A431 cells
Settings: cited from earlier work

COc1cc2ncnc(Nc3ccc(F)c(Cl)c3)c2cc1OCCCN1CCOCC1 [gefitinib, Gefitinib]
sensitivity of cells to EGFR-TKI (A431, no ligand): sensitive | sensitivity of cells to EGFR-TKI (A431 in the presence of IGF-I): resistance

Like-named read-outs stand apart in the source and are kept apart here.
